Earlier results as cited in US20150289553A1, “METHOD OF DEVELOPING SAFE AND EFFECTIVE DIETARY SUPPLEMENTS” (priority 2014, published 2015).
Read-outs that look alike come from different tables or passages of the source.

Tests used:
[1] = adults (18+ yrs.)
[2] = 400 IU supplement for 7-12 years; 35,533 men

Cc1c(C)c2c(c(C)c1O)CC[C@@](C)(CCC[C@H](C)CCC[C@H](C)CCCC(C)C)O2 [Vitamin E, RRR-alpha-tocopherol]
Upper Limits, CRN-listed Nutrients [1]: 1,000 mg
Upper Limits, CRN-listed Nutrients ([1]; value in IU in brackets): mg (1,600 IU)
risk of prostate cancer [2]: increased the risk of prostate cancer
